The target in the test is human neprilysin (EC 3.4.24.11; NEP) (Homo sapiens (Human), UniProt P08473). The test can be described thus: In vitro enzyme inhibition assay at human NEP (fluorogenic peptide substrate). It is filed as biochemical. As to conditions: pKi values at human NEP, recombinant human NEP. As for the experimental part: In Vitro Assays for the Quantitation of Inhibitor Potencies at Human and Rat NEP, and Human ACE
The inhibitory activities of compounds at human and rat neprilysin (EC 3.4.24.11; NEP) and human angiotensin converting enzyme (ACE) were determined using in vitro assays as described below.
Recombinant human NEP and recombinant human ACE were obtained commercially (R&D Systems, Minneapolis, Minn., catalog numbers 1182-ZN and 929-ZN, respectively). The fluorogenic peptide substrate Mca-D-Arg-Arg-Leu-Dap-(Dnp)-OH (Medeiros et al. (1997) Braz. J. Med. Biol. Res. 30:1157-62; Anaspec, San Jose, Calif.) and Abz-Phe-Arg-Lys(Dnp)-Pro-OH (Araujo et al. (2000) Biochemistry 39:8519-8525; Bachem, Torrance, Calif.) were used in the NEP and ACE assays respectively.
The assays were performed in 384-well white opaque plates at 37° C. using the fluorogenic peptide substrates at a concentration of 10 μM in Assay Buffer (NEP: 50 mM HEPES, pH 7.5, 100 mM NaCl, 0.01% polyethylene glycol sorbitan monolaurate (Tween-20), 10 μM ZnSO4; ACE: 50 mM HEPES, pH 7.5, 100 mM NaCl, 0.01% Tween-20, 1 μM ZnSO4).
Test compounds were assayed over the range of concentrations from 10 μM to pM. […]
Plates were read on a fluorometer with excitation and emission wavelengths set to 320 nm and 405 nm, respectively. […]

Protein sequences, listed by entry. Tags and fused reporters are not part of them. Residues count along the entry.
UniProt P08473, 52-750: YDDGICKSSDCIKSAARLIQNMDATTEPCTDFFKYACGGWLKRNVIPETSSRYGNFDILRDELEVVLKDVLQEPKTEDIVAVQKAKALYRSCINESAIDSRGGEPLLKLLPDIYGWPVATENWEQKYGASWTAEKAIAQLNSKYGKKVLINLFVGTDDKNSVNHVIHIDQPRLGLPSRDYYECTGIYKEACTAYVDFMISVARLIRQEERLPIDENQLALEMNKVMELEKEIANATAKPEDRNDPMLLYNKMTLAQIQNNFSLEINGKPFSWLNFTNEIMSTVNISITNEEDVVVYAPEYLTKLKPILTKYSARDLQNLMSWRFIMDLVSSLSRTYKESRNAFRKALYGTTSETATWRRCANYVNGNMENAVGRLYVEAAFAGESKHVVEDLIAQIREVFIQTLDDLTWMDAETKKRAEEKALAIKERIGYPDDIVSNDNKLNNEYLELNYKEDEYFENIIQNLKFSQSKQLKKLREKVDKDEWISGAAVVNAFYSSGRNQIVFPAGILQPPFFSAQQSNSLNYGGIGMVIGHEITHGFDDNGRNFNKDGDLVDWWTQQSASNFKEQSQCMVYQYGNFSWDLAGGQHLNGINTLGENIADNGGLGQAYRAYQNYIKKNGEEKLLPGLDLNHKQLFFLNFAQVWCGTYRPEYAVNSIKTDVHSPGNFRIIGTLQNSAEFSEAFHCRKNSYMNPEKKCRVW

With “(R)-5-Biphenyl-4-yl-2-hydroxy-4-[(1H-tetrazole-5-carbonyl)amino]pentanoic acid [Example 14]”, the pKi was 8.0-8.9.

Source of the values: patent US10759813B2, “Neprilysin inhibitors” (THERAVANCE BIOPHARMA R&D IP, LLC, priority 2010, dated 2020).
